For this experiment, the system named is MCF-7-Tet-off-3βHSD1-Arom (MCF-7a) cells. Kind of experiment: Stimulation of growth of MCF-7a cells by E2, TST and ASD. The class given is cell-based. As to conditions: Homo sapiens, MCF7a, read-out: EC50 of growth stimulation.
`C[C@]12CC[C@H]3[C@@H](CCC4=CC(=O)CC[C@@]43C)[C@@H]1CC[C@@H]2O` [TST, testosterone]: the EC50 was determined as 0.099 nM. As to `C[C@]12CCC(=O)C=C1CC[C@@H]1[C@@H]2CC[C@]2(C)C(=O)CC[C@@H]12` [ASD, androst-4-ene-3,17-dione], the EC50 stood at 3.6 nM. On to `C[C@]12CC[C@@H]3c4ccc(O)cc4CC[C@H]3[C@@H]1CC[C@@H]2O` [E2, 17β-estradiol], for which the EC50 came out at 0.055 nM.

One may read the EC50 as the concentration at which the effect is half-maximal.

The record behind these values is publication PMC3469775 (Journal of medicinal chemistry, 2012).
